Assay results published in patent US20120077779A1, “Inhibitors of Fibroblast Activation Protein Alpha” (Trustees of Tufts College, priority 2005, published 2012).

The chains behind the UniProt entries cited, without tags or fusion partners.
UniProt Q12884, whole entry: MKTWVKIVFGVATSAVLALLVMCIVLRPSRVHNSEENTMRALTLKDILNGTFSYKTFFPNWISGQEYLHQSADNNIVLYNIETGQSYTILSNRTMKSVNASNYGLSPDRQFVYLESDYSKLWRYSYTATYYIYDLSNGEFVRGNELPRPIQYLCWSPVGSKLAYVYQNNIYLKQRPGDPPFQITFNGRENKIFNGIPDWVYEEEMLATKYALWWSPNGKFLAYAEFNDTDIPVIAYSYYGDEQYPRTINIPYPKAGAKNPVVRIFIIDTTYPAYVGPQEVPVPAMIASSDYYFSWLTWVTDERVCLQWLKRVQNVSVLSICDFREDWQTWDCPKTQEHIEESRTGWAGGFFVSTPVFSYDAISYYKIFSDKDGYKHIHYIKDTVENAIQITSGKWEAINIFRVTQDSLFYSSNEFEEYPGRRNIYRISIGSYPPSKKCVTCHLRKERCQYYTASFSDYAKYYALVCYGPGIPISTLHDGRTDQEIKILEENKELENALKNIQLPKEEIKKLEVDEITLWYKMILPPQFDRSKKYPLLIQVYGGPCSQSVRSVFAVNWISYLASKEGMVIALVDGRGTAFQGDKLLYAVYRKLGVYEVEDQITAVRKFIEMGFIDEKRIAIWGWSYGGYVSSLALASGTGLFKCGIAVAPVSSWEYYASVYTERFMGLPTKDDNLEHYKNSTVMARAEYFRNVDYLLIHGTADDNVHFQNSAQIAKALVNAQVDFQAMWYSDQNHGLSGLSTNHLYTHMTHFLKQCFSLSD
UniProt P27487, whole entry: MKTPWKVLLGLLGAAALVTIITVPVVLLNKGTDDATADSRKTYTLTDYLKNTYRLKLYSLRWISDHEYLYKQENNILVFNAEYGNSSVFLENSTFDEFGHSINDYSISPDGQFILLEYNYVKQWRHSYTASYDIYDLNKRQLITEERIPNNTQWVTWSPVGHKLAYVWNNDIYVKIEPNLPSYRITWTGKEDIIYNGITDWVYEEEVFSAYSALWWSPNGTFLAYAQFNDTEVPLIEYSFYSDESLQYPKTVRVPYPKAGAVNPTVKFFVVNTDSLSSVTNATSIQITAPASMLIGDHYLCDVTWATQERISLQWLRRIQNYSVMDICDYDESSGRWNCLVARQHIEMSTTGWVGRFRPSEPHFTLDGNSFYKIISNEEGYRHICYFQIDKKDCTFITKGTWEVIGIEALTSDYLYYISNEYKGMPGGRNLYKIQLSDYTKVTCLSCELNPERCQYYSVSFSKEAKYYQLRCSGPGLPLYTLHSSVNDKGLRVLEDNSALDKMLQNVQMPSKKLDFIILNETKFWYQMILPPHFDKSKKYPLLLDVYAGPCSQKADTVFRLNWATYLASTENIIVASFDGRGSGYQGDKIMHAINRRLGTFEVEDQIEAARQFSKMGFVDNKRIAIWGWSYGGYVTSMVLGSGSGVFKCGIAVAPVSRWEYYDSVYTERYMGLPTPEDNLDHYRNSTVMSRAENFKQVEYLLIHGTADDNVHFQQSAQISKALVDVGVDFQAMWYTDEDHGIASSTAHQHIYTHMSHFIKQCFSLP

Key:
FAP = FAP (Homo sapiens, UniProt Q12884); test: Enzymatic activity of purified FAP, chromogenic substrate H-Ala-Pro-pNA; format: biochemical; details: read-out: IC50 FAP (pH 7.4); pH 7.4, 25° C., 10 min pre-incubation with enzyme
DPP IV = DPP IV (Homo sapiens, UniProt P27487); test: DPP IV inhibition (Table 1); format: biochemical; details: read-out: IC50 DPP IV (pH 8.0)

Structure (SMILES) | IC50 (FAP) [µM] | IC50 (DPP IV) [µM]
O=C(NCC(=O)N1CCC[C@H]1B(O)O)c1ccc2ccccc2c1 | 0.01 | 
NS(=O)(=O)c1ccc(C(=O)NCC(=O)N2CCC[C@H]2B(O)O)cc1 | 0.02 | 
O=C(CNS(=O)(=O)c1ccccc1)N1CCC[C@H]1B(O)O | 0.034 | 
O=C(CNC1CCCCC1)N1CCC[C@H]1B(O)O |  | 0.94
O=C(CNCc1ccccc1)N1CCC[C@H]1B(O)O | 15 | 69
O=C1c2ccccc2C(=O)N1CC(=O)N1CCC[C@H]1B(O)O | 0.15 | 
O=C(NCC(=O)N1CCC[C@H]1B(O)O)Nc1ccccc1 | 0.0071 | 
CC(C)(C)NCC(=O)N1CCC[C@H]1B(O)O | 0.4 | 0.043
O=C(CCc1ccccc1)NCC(=O)N1CCC[C@H]1B(O)O | 0.044 | 
O=C(NCC(=O)N1CCC[C@H]1B(O)O)c1cnccn1 | 0.082 | 
O=C(NCC(=O)N1CCC[C@H]1B(O)O)NCc1ccccc1 | 0.0072 | 
O=C(CNc1ccccc1)N1CCC[C@H]1B(O)O | 1.9 | 18
O=C(NCC(=O)N1CCC[C@H]1B(O)O)OCc1ccccc1 | 0.024 | > 32
